Experimental findings from patent US10836763B2, “5 to 7 membered heterocyclic amides as JAK inhibitors” (priority 2018, dated 2020) are described below.

Protein sequences, listed by entry. Tags and fused reporters are not part of them. Lines headed by an entry give the natural chain unless they say otherwise; changes in a name come on top.
UniProt P23458: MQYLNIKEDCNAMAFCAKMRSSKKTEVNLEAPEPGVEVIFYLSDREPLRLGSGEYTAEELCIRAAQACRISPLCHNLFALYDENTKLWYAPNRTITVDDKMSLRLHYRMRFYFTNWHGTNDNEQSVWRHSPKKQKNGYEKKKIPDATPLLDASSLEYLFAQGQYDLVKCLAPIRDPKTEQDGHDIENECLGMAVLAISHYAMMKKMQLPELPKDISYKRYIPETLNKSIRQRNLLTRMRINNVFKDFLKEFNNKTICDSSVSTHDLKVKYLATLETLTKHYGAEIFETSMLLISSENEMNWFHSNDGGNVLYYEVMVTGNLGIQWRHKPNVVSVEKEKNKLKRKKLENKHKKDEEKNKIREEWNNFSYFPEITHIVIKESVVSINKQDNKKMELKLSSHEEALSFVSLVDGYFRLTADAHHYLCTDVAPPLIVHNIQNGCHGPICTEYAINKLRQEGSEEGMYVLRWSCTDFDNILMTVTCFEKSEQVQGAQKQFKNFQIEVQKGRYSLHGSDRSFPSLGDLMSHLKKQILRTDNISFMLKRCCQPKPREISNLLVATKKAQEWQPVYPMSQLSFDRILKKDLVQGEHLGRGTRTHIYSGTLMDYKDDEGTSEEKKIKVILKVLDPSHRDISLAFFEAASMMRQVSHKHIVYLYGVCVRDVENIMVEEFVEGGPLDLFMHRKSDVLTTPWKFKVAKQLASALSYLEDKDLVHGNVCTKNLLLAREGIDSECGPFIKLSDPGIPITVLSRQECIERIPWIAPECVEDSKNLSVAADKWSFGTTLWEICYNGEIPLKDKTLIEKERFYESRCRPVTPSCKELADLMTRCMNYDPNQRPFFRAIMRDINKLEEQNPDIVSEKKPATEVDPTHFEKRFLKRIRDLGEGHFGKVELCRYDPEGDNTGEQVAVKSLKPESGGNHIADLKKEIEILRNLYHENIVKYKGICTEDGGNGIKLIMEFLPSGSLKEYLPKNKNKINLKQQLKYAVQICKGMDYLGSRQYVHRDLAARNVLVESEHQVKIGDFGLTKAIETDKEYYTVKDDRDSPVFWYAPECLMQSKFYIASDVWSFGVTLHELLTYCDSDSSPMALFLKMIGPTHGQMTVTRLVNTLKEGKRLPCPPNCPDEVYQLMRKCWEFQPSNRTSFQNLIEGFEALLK

The target of data set [1] is JAK1 (Homo sapiens (Human), UniProt P23458). The data set is described as follows: Biochemical JAK kinase assay (LanthaScreen), JAK1. As to conditions: ATP at Km 25 μM; pIC50 converted with Cheng-Prusoff. As to the method:
Assay 1: Biochemical JAK Kinase Assays
A panel of four LanthaScreen JAK biochemical assays (JAK1, 2, 3 and Tyk2) were carried in a common kinase reaction buffer (50 mM HEPES, pH 7.5, 0.01% Brij-35, 10 mM MgCl2, and 1 mM EGTA). Recombinant GST-tagged JAK enzymes and a GFP-tagged STAT1 peptide substrate were obtained from Life Technologies.
Serially diluted compounds were pre-incubated with each of the four JAK enzymes and the substrate in white 384-well microplates (Corning) at ambient temperature for 1 h. ATP was subsequently added to initiate the kinase reactions in 10 μL total volume, with 1% DMSO. […] The plates were allowed to incubate at ambient temperature for 1 h before being read on the EnVision reader (Perkin Elmer). Emission ratio signals (520 nm/495 nm) were recorded and utilized to calculate the percent inhibition values based on DMSO and background controls.
For dose-response analysis, percent inhibition data were plotted vs. compound concentrations, and IC50 values were determined from a 4-parameter robust fit model with the Prism software (GraphPad Software). Results were expressed as pIC50 (negative logarithm of IC50) and subsequently converted to pKi (negative logarithm of dissociation constant, Ki) using the Cheng-Prusoff equation.

Data set [2] has as its system IL-2 stimulated STAT5 phosphorylation in Tall-1 human T cell line. Kind of data set: Inhibition of IL-2 stimulated pSTAT5 in Tall-1 T cells. The format is cell-based. As to conditions: TALL-1, 0.5 h, read-out: Tall-1 pIC50 (converted). On the procedure:
Assay 2: Inhibition of IL-2 Stimulated pSTAT5 in Tall-1 T Cells
The potency of test compounds for inhibition of interleukin-2 (IL-2) stimulated STAT5 phosphorylation was measured in the Tall-1 human T cell line (DSMZ) using AlphaLisa.
Phosphorylated STAT5 was measured via the AlphaLISA SureFire Ultra pSTAT5 (Tyr694/699) kit (PerkinElmer).
Compounds were serially diluted in DMSO and dispensed acoustically to empty wells. Assay media (phenol red-free DMEM (Life Technologies) supplemented with 10% FBS (ATCC)) was dispensed (4 μL/well) and plates shaken at 900 rpm for 10 mins. […] Phosphorylated STAT5 was measured via the pSTAT5 AlphaLisa kit (PerkinElmer). […] Luminescence was measured with excitation at 689 nm and emission at 570 nm using an EnVision plate reader (PerkinElmer) under green filtered <100 lux light.
To determine the inhibitory potency of test compounds in response to IL-2, the average emission intensity of beads bound to pSTAT5 was measured in a human T cell line. IC50 values were determined from analysis of the inhibition curves of signal intensity versus compound concentration. Data are expressed as pIC50 (negative decadic logarithm IC50) values (mean±standard deviation).

Data set [3] can be described thus: Lung and plasma drug concentration in the murine IL-13 pSTAT6 model. As to conditions: Balb/c, mouse, other: oral aspiration, 50 µg/mouse, lung ng/g to plasma ng/mL at 5 hours, mice, read-out: Lung to Plasma ratio at 5 hr. It counts as in vivo. As to the method:
Assay 3: Murine (Mouse) Model of IL-13 Induced pSTAT6 Induction in Lung Tissue
Adult Balb/c mice from Harlan were used in the assay. […] Animals were placed in lateral recumbency post dose and monitored for full recovery from anesthesia before being returned to their home cage. Four hours later, animals were once again briefly anesthetized and challenged with either vehicle or IL-13 (0.03 μg total dose delivered, 50 μL total volume) via oral aspiration before being monitored for recovery from anesthesia and returned to their home cage. One hour after vehicle or IL-13 administration, whole blood and lungs were collected for both pSTAT6 detection in lung homogenates using a Perkin Elmer AlphaLISA® SureFire® Ultra™ HV p-STAT6 (Tyr641) assay kit and for total drug concentration analysis in both lung and plasma. Blood samples were centrifuged (Eppendorf centrifuge, 5804R) for 4 minutes at approximately 12,000 rpm at 4° C. to collect plasma. […] Plasma and lung levels of test compound were determined by LC-MS analysis against analytical standards constructed into a standard curve in the test matrix. A lung to plasma ratio was determined as the ratio of the lung concentration in ng/g to the plasma concentration in ng/mL at 5 hours.

The test system of data set [4] is TSLP-evoked TARC release in human peripheral blood mononuclear cells. Kind of data set: Inhibition of TSLP-evoked TARC release in human peripheral blood mononuclear cells. The format is cell-based. Particulars: PBMC, 48 h, read-out: pIC50 ± st. dev., inhibition of TSLP-evoked TARC release (converted). The source says: Assay 4: Inhibition of TSLP-Evoked TARC Release in Human Peripheral Blood Mononuclear Cells
Thymic stromal lymphopoietin (TSLP) and thymus and activation-regulated chemokine (TARC) are overexpressed in asthmatic airways, and correlate with disease severity. In the lungs, TSLP may be released by bronchial epithelial cells in response to allergens and viral infections. TSLP signals through an IL-7Rα/TSLPR heterodimer found in a broad range of tissues and cell types, including epithelial cells, endothelial cells, neutrophils, macrophages, and mast cells. […]
The potencies of the test compounds were measured for inhibition of TARC release. […]
Following stimulation, the cell culture supernatants were harvested and TARC levels were detected by enzyme-linked immunosorbent assay (ELISA), using Human CCL17/TARC Quantikine ELISA Kit (R&D Systems # DDN00) according to the manufacturer's instructions.
For dose response analysis, the log [test compound (M)] was plotted versus the percent response values for each donor, and IC50 values were determined using a nonlinear regression analysis with GraphPad Prism Software using the 4-parameter sigmoidal dose-response algorithm with variable slope. Data are expressed as mean pIC50 (negative decadic logarithm IC50) values calculated from pIC50 values of individual donors and rounded to one decimal place.

As to `CCc1cc(O)c(F)cc1-c1ccc2c(-c3nc4c([nH]3)CN(C)[C@H](C(=O)N3CCN(C)C[C@@H]3C)C4)n[nH]c2c1` [Compound C-3, ((S)-2,4-dimethylpiperazin-1-yl)((S)-2-(6-(2-ethyl-5-fluoro-4-hydroxyphenyl)-1H-indazol-3-yl)-5-methyl-4,5,6,7-tetrahydro-3H-imidazo[4,5-c]pyridin-6-yl)methanone, reference compound], the “JAK1 pKi” value in data set [1] worked out at 10.2.

Take `CCc1cc(O)ccc1-c1ccc2c(-c3nc4c([nH]3)CN(C)[C@H](C(=O)N3CCN(C)C[C@@H]3C)C4)n[nH]c2c1` [Compound 3, ((S)-2,4-dimethylpiperazin-1-yl)((S)-2-(6-(2-ethyl-4-hydroxyphenyl)-1H-indazol-3-yl)-5-methyl-4,5,6,7-tetrahydro-3H-imidazo[4,5-c]pyridin-6-yl)methanone]: the results for the IC50 in data set [2] and in data set [4] were 1.58 nM and 50.1 nM, respectively. In addition, the Kp at 5 h in data set [3] amounted to 411.
